Laboratory results as given in paper PMC3961306, “Comparison of the Cancer Gene Targeting and Biochemical Selectivities of All Targeted Kinase Inhibitors Approved for Clinical Use” (PLoS ONE, 2014).

Sequences of proteins named here, by UniProt entry; tags and fusion partners are left off. Residues count along the entry.
UniProt P30530, 26-894, stated change not applied: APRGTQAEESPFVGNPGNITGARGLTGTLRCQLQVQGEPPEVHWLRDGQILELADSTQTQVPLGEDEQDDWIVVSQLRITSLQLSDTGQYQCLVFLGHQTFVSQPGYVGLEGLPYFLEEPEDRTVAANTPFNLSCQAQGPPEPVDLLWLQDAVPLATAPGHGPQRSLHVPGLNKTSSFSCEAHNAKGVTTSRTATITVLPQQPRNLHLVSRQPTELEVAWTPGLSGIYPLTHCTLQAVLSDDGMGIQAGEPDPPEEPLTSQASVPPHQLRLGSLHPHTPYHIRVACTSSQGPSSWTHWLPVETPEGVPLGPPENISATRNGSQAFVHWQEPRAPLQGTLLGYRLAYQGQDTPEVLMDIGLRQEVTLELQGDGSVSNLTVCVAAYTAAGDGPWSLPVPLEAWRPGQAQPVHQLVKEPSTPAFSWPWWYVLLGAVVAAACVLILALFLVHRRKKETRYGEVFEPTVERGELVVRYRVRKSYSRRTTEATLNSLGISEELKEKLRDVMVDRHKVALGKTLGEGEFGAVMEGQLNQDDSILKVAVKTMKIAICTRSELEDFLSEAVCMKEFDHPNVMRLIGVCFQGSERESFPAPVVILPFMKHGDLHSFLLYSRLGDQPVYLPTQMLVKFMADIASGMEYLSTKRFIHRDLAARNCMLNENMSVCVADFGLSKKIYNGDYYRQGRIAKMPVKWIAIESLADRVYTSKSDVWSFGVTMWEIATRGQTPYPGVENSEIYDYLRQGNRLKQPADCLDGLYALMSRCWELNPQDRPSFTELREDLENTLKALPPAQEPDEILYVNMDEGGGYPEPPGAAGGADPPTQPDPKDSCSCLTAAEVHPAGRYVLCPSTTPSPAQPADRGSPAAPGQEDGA
UniProt Q16512, whole entry, stated change not applied: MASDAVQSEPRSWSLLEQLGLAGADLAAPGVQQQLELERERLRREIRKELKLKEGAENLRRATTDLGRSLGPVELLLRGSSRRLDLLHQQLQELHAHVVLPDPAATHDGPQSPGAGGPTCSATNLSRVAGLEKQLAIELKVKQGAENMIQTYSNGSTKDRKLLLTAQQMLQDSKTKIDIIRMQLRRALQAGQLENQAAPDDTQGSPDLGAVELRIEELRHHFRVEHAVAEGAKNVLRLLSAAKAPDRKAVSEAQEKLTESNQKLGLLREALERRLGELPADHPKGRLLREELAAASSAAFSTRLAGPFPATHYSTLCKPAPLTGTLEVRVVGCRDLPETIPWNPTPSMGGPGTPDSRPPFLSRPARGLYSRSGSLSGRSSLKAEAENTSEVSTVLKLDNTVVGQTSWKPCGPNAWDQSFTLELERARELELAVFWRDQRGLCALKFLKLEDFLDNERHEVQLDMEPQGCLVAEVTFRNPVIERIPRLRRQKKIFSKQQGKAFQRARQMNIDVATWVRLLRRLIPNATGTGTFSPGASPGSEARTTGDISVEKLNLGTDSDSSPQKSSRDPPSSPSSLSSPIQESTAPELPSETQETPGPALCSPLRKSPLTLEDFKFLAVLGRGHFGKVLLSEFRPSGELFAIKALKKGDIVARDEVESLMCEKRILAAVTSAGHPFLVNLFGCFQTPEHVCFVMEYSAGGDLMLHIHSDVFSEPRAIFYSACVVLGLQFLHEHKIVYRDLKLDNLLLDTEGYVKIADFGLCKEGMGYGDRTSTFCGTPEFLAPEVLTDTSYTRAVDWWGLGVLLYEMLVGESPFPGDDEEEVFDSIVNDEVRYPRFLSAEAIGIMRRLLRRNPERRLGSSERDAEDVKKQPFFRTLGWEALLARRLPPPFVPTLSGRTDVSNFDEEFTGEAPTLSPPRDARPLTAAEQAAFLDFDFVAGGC
UniProt Q9P0L2, whole entry, stated change not applied: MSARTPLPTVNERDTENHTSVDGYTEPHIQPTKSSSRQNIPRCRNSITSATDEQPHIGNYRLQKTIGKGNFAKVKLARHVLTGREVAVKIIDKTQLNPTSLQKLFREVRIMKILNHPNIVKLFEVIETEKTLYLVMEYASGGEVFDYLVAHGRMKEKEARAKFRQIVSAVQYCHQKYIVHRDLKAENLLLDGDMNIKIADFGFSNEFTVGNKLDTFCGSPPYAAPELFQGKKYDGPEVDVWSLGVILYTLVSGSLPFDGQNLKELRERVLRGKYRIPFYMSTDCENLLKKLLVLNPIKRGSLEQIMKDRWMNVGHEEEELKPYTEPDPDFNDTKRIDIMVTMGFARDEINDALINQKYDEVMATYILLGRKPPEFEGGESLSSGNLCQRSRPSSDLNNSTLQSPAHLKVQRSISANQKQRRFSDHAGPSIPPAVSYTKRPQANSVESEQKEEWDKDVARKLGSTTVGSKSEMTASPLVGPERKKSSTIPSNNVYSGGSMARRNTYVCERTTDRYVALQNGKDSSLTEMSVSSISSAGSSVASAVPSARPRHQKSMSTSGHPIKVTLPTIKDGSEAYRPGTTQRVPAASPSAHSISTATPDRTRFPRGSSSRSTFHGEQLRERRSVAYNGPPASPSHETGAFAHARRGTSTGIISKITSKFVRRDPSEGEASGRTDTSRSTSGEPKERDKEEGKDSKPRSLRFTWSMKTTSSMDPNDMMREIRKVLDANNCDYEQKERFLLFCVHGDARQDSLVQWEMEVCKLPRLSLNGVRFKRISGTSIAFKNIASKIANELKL
UniProt P27448, whole entry, stated change not applied: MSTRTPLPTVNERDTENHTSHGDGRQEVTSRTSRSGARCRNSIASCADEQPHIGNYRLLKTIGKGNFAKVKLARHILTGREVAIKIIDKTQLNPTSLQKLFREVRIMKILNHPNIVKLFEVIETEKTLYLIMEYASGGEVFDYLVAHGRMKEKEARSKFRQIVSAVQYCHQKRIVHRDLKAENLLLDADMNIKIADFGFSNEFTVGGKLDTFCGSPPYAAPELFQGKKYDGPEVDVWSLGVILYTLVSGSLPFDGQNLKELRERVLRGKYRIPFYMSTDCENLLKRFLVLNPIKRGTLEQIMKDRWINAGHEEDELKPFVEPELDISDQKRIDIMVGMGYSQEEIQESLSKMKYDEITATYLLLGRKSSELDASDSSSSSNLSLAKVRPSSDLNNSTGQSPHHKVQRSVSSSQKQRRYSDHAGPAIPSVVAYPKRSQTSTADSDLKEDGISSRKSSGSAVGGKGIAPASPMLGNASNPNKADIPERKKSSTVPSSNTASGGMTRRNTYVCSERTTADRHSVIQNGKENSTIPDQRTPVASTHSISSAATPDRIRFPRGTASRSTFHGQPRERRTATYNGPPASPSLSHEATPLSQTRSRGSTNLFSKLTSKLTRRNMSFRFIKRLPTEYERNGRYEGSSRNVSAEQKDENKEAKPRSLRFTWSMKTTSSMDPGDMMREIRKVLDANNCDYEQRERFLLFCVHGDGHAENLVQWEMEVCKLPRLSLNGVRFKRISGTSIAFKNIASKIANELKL
UniProt P53355, whole entry, stated change not applied: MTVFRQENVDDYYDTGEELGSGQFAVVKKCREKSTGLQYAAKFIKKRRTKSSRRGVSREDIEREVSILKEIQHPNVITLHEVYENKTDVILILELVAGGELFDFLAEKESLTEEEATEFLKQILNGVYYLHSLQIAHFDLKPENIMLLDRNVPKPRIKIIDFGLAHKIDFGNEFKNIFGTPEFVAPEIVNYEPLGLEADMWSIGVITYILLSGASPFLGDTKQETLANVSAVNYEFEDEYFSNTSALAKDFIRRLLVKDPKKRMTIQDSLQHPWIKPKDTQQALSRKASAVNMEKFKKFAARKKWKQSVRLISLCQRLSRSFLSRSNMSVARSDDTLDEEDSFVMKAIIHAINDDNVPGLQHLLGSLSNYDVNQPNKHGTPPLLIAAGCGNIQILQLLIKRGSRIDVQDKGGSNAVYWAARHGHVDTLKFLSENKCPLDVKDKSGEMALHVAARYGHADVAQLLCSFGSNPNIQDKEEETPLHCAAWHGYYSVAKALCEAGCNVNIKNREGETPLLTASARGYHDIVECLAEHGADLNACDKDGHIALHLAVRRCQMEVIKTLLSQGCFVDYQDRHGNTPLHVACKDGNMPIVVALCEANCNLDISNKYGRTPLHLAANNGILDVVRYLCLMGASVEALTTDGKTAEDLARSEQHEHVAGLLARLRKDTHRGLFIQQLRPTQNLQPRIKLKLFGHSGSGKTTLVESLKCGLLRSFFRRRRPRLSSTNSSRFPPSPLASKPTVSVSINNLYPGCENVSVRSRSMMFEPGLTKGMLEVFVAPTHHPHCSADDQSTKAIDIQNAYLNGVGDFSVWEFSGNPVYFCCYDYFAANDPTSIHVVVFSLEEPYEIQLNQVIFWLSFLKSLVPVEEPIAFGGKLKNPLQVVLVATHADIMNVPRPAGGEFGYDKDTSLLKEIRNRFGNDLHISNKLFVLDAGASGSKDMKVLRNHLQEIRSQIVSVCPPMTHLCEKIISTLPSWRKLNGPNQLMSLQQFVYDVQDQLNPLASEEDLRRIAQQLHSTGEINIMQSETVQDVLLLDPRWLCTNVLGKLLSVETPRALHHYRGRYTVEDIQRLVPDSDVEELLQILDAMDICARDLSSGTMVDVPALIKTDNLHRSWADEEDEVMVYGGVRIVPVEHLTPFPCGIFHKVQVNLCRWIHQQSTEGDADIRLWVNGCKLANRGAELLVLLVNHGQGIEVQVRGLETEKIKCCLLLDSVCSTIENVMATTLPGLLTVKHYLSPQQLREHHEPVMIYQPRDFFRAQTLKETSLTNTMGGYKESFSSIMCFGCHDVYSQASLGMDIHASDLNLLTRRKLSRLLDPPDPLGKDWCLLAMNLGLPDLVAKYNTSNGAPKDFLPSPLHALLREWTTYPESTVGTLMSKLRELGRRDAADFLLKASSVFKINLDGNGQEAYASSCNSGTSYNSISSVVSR
UniProt Q16654, whole entry, stated change not applied: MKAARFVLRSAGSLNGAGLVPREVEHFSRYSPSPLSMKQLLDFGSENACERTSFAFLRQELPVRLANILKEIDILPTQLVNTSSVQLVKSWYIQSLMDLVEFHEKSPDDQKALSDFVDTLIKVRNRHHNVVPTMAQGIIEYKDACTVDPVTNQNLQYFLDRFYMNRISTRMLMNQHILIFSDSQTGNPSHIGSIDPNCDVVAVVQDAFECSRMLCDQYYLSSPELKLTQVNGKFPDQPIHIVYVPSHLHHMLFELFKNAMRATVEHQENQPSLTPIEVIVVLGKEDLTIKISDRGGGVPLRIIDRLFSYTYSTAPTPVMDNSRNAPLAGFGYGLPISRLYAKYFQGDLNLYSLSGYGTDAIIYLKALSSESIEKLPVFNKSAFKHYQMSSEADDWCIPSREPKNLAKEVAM
UniProt P08069, 31-1367, stated change not applied: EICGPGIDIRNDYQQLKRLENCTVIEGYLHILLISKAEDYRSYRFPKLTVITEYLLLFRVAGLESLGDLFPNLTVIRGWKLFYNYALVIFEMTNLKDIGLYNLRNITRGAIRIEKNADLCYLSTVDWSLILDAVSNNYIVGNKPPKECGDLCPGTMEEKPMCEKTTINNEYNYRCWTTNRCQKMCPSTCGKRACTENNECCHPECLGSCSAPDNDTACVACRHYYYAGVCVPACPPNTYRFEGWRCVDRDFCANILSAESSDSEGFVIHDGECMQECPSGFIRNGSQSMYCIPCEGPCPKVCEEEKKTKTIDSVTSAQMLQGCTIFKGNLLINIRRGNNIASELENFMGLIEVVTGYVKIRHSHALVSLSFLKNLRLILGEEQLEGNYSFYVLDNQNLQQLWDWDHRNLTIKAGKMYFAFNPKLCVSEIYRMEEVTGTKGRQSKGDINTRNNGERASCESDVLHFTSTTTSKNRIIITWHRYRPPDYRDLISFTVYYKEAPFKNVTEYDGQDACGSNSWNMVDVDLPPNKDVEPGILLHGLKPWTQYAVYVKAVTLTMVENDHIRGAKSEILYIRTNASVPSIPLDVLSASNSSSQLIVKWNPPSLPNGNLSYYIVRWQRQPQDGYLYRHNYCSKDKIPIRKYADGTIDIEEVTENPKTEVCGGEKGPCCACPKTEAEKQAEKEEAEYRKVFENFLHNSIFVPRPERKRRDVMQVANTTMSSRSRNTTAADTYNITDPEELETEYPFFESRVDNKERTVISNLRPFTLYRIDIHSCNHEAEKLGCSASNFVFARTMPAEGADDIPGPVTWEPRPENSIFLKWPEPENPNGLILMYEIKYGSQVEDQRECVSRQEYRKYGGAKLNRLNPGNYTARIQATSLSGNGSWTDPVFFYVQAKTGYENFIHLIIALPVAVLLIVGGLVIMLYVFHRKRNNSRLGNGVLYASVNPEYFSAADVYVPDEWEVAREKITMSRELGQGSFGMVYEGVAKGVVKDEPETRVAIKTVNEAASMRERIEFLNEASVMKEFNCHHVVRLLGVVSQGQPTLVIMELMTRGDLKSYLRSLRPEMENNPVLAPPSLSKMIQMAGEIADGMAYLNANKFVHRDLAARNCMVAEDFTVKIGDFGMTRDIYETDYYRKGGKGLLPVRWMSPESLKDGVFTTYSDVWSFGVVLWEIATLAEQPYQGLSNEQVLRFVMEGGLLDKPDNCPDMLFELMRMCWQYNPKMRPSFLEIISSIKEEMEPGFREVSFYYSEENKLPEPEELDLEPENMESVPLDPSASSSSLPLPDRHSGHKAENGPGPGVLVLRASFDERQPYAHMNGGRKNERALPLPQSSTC

Assays:
Assay in all cases: Kinase profiling in a biochemical assay panel (mobility shift assays and ELISA), %-inhibition at 1 μM; selectivity entropy
[1] = target: panel of more than 300 wild-type and mutant kinases (313 kinase panel) (Homo sapiens, UniProt P23443)
[2] = target: panel of more than 300 wild-type and mutant kinases (313 kinase panel) (Homo sapiens, UniProt P52333); conditions: kinase JAK3; compound at 1 μM
[3] = target: panel of more than 300 wild-type and mutant kinases (313 kinase panel) (Homo sapiens, UniProt Q9NYY3)
[4] = target: panel of more than 300 wild-type and mutant kinases (313 kinase panel) (Homo sapiens, UniProt P30530)
[5] = target: panel of more than 300 wild-type and mutant kinases (313 kinase panel) (Homo sapiens, UniProt Q16512)
[6] = target: panel of more than 300 wild-type and mutant kinases (313 kinase panel) (Homo sapiens, UniProt Q13177); conditions: 1 µM
[7] = target: panel of more than 300 wild-type and mutant kinases (313 kinase panel) (Homo sapiens, UniProt Q9BYP7); conditions: 1 µM
[8] = target: panel of more than 300 wild-type and mutant kinases (313 kinase panel) (Homo sapiens, UniProt P27361); conditions: 1 µM
[9] = target: panel of more than 300 wild-type and mutant kinases (313 kinase panel) (Homo sapiens, UniProt Q96PY6); conditions: 1 µM
[10] = target: panel of more than 300 wild-type and mutant kinases (313 kinase panel) (Homo sapiens, UniProt Q9P0L2); conditions: 1 µM
[11] = target: panel of more than 300 wild-type and mutant kinases (313 kinase panel) (Homo sapiens, UniProt P51955); conditions: 1 µM
[12] = target: panel of more than 300 wild-type and mutant kinases (313 kinase panel) (Homo sapiens, UniProt P16234, V561D); conditions: 1 µM
[13] = target: panel of more than 300 wild-type and mutant kinases (313 kinase panel) (Homo sapiens, UniProt Q04759); conditions: 1 µM
[14] = target: panel of more than 300 wild-type and mutant kinases (313 kinase panel) (Homo sapiens, UniProt P27448); conditions: 1 µM
[15] = target: panel of more than 300 wild-type and mutant kinases (313 kinase panel) (Homo sapiens, UniProt P53355); conditions: 1 µM
[16] = target: panel of more than 300 wild-type and mutant kinases (313 kinase panel) (Homo sapiens, UniProt Q04912); conditions: 1 µM
[17] = target: panel of more than 300 wild-type and mutant kinases (313 kinase panel) (Homo sapiens, UniProt Q16654); conditions: 1 µM
[18] = target: panel of more than 300 wild-type and mutant kinases (313 kinase panel) (Homo sapiens, UniProt P08069)
[19] = target: panel of more than 300 wild-type and mutant kinases (313 kinase panel) (Homo sapiens, UniProt Q96PN8); conditions: 1 µM
[20] = target: panel of more than 300 wild-type and mutant kinases (313 kinase panel) (Homo sapiens, UniProt Q8IWQ3); conditions: 1 µM
[21] = target: panel of more than 300 wild-type and mutant kinases (313 kinase panel) (Homo sapiens, UniProt O96013); conditions: 1 µM
[22] = target: panel of more than 300 wild-type and mutant kinases (313 kinase panel) (Homo sapiens, UniProt Q96L34); conditions: 1 µM
[23] = target: panel of more than 300 wild-type and mutant kinases (313 kinase panel) (Homo sapiens, UniProt O75116); conditions: 1 µM

Row | SMILES | %-inhibition of JAK3 [2] [%] | %-inhibition of PAK2 [6] [%] | %-inhibition of WNK3 [7] [%] | %-inhibition of Erk1 [8] [%] | %-inhibition of NEK1 [9] [%] | %-inhibition of MARK1 [10] [%] | %-inhibition of NEK2 [11] [%] | %-inhibition of PDGFRα(V561D) [12] [%] | %-inhibition of PKCθ [13] [%] | %-inhibition of MARK3 [14] [%] | %-inhibition of DAPK1 [15] [%] | %-inhibition of RON [16] [%] | %-inhibition of PDHK4 [17] [%] | %-inhibition of IGF1R [18] [%] | %-inhibition of TSSK3 [19] [%] | %-inhibition, BRSK2 [20] [%] | %-inhibition of PAK4 [21] [%] | %-inhibition of MARK4 [22] [%] | %-inhibition of ROCK2 [23] [%] | further results
1 | CNC(=O)c1ccccc1Sc1ccc2c(/C=C/c3ccccn3)n[nH]c2c1 [axitinib] | 75 |  |  |  |  |  |  |  |  |  |  |  |  |  |  |  |  |  |  | %-inhibition of p70S6K ([1]; kinase p70S6K, 1 μM): 12%; %-inhibition of PLK2 ([3]; kinase PLK2, 1 μM): 1%; %-inhibition, AXL ([4]; kinase AXL, 1 μM compound): 82%; %-inhibition of PKN1 ([5]; kinase PKN1, 1 μM): 7%
2 | COc1cc2ncnc(Nc3ccc(F)c(Cl)c3)c2cc1OCCCN1CCOCC1 [gefitinib] | 4 | 3.56 | -5.51 | -2.85 | 7 | 14 | 3 | 65 | 5.66 | 11 | 7 | 3.18 | -2.83 | 6 | 2 | 8 | -6 | 16 | 3.22 | 
3 | C[C@@H]1CCN(C(=O)CC#N)C[C@@H]1N(C)c1ncnc2[nH]ccc12 [tofacitinib] |  | -21 | -8 | -1.44 | -3 | 41 | -2.43 | 10 | -1.47 | 56 | -3 | 4 | -3.33 | 0.207 | -3 | -0.511 | -17 | 52 | 41 | %-inhibition of p70S6K ([1]; 1 µM): 13%; %-inhibition of PLK2 ([3]; 1 µM): -2.13%; %-inhibition, AXL ([4]; 1 µM): 3%; %-inhibition of PKN1 ([5]; 1 µM): 91%
